ChEMBL document CHEMBL1150001, “A rationale for the design and synthesis of m1 selective muscarinic agonists” (Bioorg Med Chem Lett, 1992)
Calls of active or inactive are those of the source. The rule behind the calls is not given here.

Chains of the proteins cited; added tags and fusions are not shown. Lines headed by an entry give the natural chain unless they say otherwise; changes in a name come on top.
UniProt P11229: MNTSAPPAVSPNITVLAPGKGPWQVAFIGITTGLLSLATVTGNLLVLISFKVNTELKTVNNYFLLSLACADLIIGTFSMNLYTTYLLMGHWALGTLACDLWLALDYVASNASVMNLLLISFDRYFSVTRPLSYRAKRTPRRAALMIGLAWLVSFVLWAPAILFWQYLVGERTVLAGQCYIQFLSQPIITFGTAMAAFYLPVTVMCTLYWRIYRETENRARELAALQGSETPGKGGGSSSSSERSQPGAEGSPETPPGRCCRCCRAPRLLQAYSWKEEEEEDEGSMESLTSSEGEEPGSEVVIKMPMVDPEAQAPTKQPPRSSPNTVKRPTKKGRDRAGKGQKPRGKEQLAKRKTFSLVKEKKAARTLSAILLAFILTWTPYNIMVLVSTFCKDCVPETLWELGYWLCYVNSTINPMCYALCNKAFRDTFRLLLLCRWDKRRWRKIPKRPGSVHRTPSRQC
UniProt P08172, whole entry, looked up: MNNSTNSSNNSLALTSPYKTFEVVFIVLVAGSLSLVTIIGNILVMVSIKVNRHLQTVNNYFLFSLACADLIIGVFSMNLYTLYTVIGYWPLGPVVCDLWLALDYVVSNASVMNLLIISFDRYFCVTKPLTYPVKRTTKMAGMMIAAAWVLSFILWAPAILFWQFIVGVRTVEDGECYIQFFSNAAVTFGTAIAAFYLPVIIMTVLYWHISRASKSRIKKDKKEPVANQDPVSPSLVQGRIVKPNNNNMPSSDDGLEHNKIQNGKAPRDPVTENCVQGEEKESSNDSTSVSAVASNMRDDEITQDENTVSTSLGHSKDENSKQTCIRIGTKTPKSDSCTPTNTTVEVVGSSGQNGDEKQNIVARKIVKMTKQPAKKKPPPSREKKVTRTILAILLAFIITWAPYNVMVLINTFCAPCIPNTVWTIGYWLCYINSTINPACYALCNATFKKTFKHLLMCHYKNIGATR

Experiments:
[1] = Ratio of RQNB to RCMD was determined; Not active
[2] = target: Muscarinic acetylcholine receptors; M1 & M2 (Homo sapiens) (UniProt P11229+P08172); assay: Selectivity ratio for m1 over m2 muscarinic receptors was determined; Not active; assay type: protein assay

SMILES: O/N=C1\CN2CCC1C2 (configuration not stated)
- Ratio [1]: inactive
- Ratio [2]: inactive
